Results as given in ChEMBL document CHEMBL1138800, “Synthesis and biological evaluation of novel N6-[4-(substituted)sulfonamidophenylcarbamoyl]adenosine-5'-uronamides as A3 adenosine receptor agonists” (J Med Chem, 2004).

By UniProt entry, the sequences of proteins in these tests, tags left out.
UniProt P30542, whole entry: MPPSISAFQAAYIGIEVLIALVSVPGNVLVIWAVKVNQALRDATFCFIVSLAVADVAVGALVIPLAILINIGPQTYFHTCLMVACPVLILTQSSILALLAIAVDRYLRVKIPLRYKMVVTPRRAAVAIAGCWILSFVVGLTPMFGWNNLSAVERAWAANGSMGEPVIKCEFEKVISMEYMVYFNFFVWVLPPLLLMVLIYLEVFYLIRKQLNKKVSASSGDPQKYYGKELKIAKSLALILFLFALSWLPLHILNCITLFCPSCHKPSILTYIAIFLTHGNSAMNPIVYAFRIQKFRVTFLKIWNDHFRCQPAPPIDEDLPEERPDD
UniProt P0DMS8, whole entry, looked up: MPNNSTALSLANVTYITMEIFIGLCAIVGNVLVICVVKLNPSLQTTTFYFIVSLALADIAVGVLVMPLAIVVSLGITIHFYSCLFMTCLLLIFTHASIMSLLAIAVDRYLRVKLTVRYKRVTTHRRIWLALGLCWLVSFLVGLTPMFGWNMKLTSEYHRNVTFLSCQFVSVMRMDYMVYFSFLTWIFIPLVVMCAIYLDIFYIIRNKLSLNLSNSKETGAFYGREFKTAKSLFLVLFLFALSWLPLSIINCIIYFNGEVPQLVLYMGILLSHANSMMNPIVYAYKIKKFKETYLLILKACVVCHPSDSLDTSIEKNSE

Legend:
Adenosine receptor A2a = Adenosine receptor A2a (Homo sapiens, UniProt P29274); assay: Displacement of [3H]CGS-21680 binding to Adenosine A2 receptor expressed in CHO cells; type: cell-based
Adenosine receptor A1 = Adenosine receptor A1 (Homo sapiens, UniProt P30542); assay: Displacement of [3H]CHA binding to Adenosine A1 receptor expressed in CHO cells; type: cell-based
[1] = target: Adenosine receptors; A1 & A3 (Homo sapiens) (UniProt P30542+P0DMS8); assay: Ratio of binding affinity for Adenosine A1 and Adenosine A3 receptors; type: protein assay

SMILES	Ki (Adenosine receptor A2a)	Ki (Adenosine receptor A1)	Ratio [1]
CCNC(=O)[C@H]1OC(n2cnc3c(NC(=O)Nc4ccc(S(=O)(=O)N(C)C(C)C)cc4)ncnc32)C(O)C1O (single isomer, unassigned)	> 1 µM	0.325 µM	–
C=CCN(C)S(=O)(=O)c1ccc(NC(=O)Nc2ncnc3c2ncn3C2O[C@H](C(=O)NCC)C(O)C2O)cc1 (single isomer, unassigned)	–	–	20.6
